The target in this assay is T1, α4β2 AChRs (Homo sapiens, UniProt P17787+P43681).
T1 construct: expressed in transfected cells
Put plainly: Smoldering activation following acute desensitization, α4β2. It counts as cell-based. Conditions: α4β2, antagonist 1 µM applied after 10 minutes.

Amino acid sequences for entries named in this document (tags omitted). Residues count along the entry.
UniProt P17787, 26-502: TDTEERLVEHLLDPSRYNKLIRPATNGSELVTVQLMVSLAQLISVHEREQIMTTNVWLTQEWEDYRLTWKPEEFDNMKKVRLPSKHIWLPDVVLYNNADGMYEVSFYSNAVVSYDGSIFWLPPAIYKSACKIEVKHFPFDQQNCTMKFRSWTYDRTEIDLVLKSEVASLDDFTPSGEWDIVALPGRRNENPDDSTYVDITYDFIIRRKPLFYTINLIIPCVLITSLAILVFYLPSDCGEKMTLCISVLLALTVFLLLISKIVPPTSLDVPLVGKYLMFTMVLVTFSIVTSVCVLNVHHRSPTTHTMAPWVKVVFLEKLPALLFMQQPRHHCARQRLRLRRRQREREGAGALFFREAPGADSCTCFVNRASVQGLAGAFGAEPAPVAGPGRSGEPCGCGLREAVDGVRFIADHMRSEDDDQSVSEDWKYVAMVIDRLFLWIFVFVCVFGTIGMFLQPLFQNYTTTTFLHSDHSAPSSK
UniProt P43681, 29-627: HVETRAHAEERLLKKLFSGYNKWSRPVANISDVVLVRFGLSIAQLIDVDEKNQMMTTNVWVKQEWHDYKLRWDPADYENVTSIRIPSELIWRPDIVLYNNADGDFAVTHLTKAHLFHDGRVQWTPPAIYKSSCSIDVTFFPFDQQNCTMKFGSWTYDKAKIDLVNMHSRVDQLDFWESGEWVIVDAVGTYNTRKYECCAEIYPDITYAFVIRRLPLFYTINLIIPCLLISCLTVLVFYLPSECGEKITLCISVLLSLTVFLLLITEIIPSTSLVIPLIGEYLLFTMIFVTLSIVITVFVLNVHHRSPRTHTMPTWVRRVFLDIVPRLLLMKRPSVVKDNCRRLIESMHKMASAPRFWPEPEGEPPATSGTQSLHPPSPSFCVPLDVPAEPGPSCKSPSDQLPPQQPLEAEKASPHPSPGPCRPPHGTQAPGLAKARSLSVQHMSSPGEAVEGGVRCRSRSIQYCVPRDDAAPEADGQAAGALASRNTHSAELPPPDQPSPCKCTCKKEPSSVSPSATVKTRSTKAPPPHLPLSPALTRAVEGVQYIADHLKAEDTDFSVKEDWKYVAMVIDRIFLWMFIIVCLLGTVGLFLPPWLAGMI

On to `CO[C@H]1CC=C2CCN3CCC4=C(CC(=O)OC4)[C@]23C1` [DHβE, dihydroβerythroidine], for which the “Effect of antagonist on sustained agonist response” value is on record as “abrogated”.

For the origin of these results see publication PMC3828267 (PLoS ONE, 2013).
